Data reported in ChEMBL document CHEMBL5344428, “Discovery, Crystallographic Studies, and Mechanistic Investigations of Novel Phenylalanine Derivatives Bearing a Quinazolin-4-one Scaffold as Potent HIV Capsid Modulators” (J Med Chem, 2023).

Test: Metabolic stability in human liver microsomes assessed as half-life at 1 uM incubated for 60 mins in presence of NADPH by LC-MS/MS analysis
Format: ADME, Microsome
Summary of the method: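 Human liver microsomes were used at a final 0.5 mg protein/mL, incubated 60 min with an NADPH regenerating system. The no-cofactor arm replaced NADPH with buffer. T1/2 came from linear regression of the kinetic data. CLint(mic) = (0.693/T1/2)/mg microsomal protein per mL. CLint(liver) was scaled by mg microsomal protein/g liver and g liver/kg body weight.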

Work on `O=C(O)Cc1ccccc1Nc1c(Cl)cccc1Cl` [DICLOFENAC] yielded a half-life at 1 µM of 4.5 min.
